## Reported water solubility values for industrial, environmental and drug-like chemicals

Values as listed in the OPERA 2.9 repository of K. Mansouri.

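The OPERA project collected these measurements from public sources as training and test data for property models. One number stands for a compound and property, with no spread given. Conditions of the individual experiments are not part of the data. A value may pool stereoisomers or salt forms, and the file does not say which form was measured. Some entries may be limits or estimates that an upstream database listed as plain numbers.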

Solubility in water is on a log10 molar scale (set defined at 25 °C). Cells with "n/a" have no entry in this list.

| structure (SMILES) | name | log S (log10 mol/L) |
|---|---|---|
| CCCCCCCC(=O)c1ccc(O)c(C(=O)O)c1 | 2-Hydroxy-5-(1-oxooctyl)benzoic acid | -3.949 |
| CC(C)=NNC(=O)Nc1ccccc1 | 2-Isopropylidene-N-phenylhydrazinecarboxamide | -2.327 |
| CCC(CC)(C(=O)O)C(=O)O | Propanedioic acid, diethyl- | 0.608 |
| OCc1nc2ncncc2[nH]1 | 7h-purin-8-ylmethanol | -1.518 |
| CS(=O)(=O)c1ccc(C(=O)C2C(=O)CCCC2=O)c(Cl)c1COCC1CCCO1 (stereo not given) | Tefuryltrione | -3.621 |
| CN1C(=O)c2ccccc2C1=O | N-Methylphthalimide | -2.584 |
| CCCCC(CC)COC(=O)CC(CC(=O)OCC(CC)CCCC)(OC(C)=O)C(=O)OCC(CC)CCCC (stereo not given) | Acetyl tris(2-ethylhexyl) citrate | -7.058 |
| O=P(Oc1ccccc1)(Oc1ccccc1)O[C@H]1CO[C@H]2[C@@H]1OC[C@H]2OP(=O)(Oc1ccccc1)Oc1ccccc1 | 1,4:3,6-Dianhydro-2,5-bis-O-(diphenoxyphosphoryl)-D-glucitol | -6.309 |
| CO[Si](OC)(C1CCCC1)C1CCCC1 | Cyclopentane, 1,1'-(dimethoxysilylene)bis- | -4.472 |
| CCC(=O)C(C)=O | 2,3-Pentanedione | -0.176 |
| Cc1cc(OI)c(C(C)C)cc1-c1cc(C(C)C)c(OI)cc1C | Thymol iodide | -6.837 |
| O=C(O)CSC(CC(=O)O)c1ccccc1 (stereo not given) | 3-Carboxymethylsulfanyl-3-phenyl-propionic acid | -1.247 |
| Cc1nn(C)c(F)c1C(O)=Nc1ccccc1C(C)CC(C)C (stereo not given) | Penflufen | -4.46 |
| NC(=O)NC(N)=O | Imidodicarbonic diamide | -0.831 |
| O=C(OCn1ncc2c(O)ncnc21)c1cccnc1 | ALLOPURINOL, 1-[NICOTINOYLOXYMETHYL]- | -3.465 |
| O=C(O)CCc1nc(-c2ccccc2)c(-c2ccccc2)o1 | Oxaprozin | -3.955 |
| C[C@H]1[C@H](NC(=O)/C(=N\OC(C)(C)C(=O)O)c2csc(N)n2)C(=O)N1S(=O)(=O)O | Aztreonam | -4.006 |
| CCCCCCCCCCCCOC(=O)C(CC)CCCC (stereo not given) | C12-15 alkyl ethylhexanoate | -6.194 |
| C=CC1=C(C(=O)O)N2C(=O)[C@@H](NC(=O)/C(=N\O)c3csc(N)n3)[C@H]2SC1 | Cefdinir | -3.654 |
| CCCC[N+](CC)(CCCC)CCCCCC[N+](CC)(CCCC)CCCC.CCOS(=O)(=O)[O-].CCOS(=O)(=O)[O-] | n/a | -0.131 |
| COCCCN1C(=O)c2ccc3c(=O)n4c5ccc(C)cc5nc4c4ccc(c2c34)C1=O | n/a | -6.772 |
| O=C(O)C(O)c1cccc(O)c1 (stereo not given) | Hydroxy(3-hydroxyphenyl)acetic acid | -0.734 |
| CCN(CC)c1ccc2cc(-c3nc(=O)c4ccccc4[nH]3)c(=O)oc2c1 | n/a | -7.479 |
| Oc1ccc2ccccc2c1N=Nc1ccccc1 | C.I. Solvent Yellow 14 | -5.561 |
| CC(C)(C)OC(=O)C(C)(C)ON=C(C(=O)O)c1csc(NC(c2ccccc2)(c2ccccc2)c2ccccc2)n1 | n/a | -8.221 |
| CC1(C)OC[C@@H]2O[C@@]3(C(=O)O)OC(C)(C)O[C@H]3[C@@H]2O1 | Dikegulac | -1.14 |
| O=c1c2ccc3c4c(ccc(c24)c2nc4ccccc4n12)c(=O)n1c2ccccc2nc31 | C.I. Pigment Orange 43 | -7.758 |
| CC(C)OC(=O)c1ccc(O)cc1 | Isopropylparaben | -2.175 |
| O=C(O)c1cccc(Oc2ccccc2)c1 | 3-Phenoxybenzoic acid | -4.1 |
| NC(N)=Nc1nc2ccccc2o1 | N-1,3-benzoxazol-2-ylguanidine | -2.765 |
| CCCCNC(=O)Nc1c(C)n(C)n(-c2ccccc2)c1=O | n/a | -1.629 |
| CCCCCCCC(=O)N(C)C | N,N-Dimethyloctanamide | -1.6 |
| CC(C)CC(C)c1ccccc1N (stereo not given) | 2-(1,3-Dimethylbutyl)aniline | -3.558 |
| C=C1/C(=C\C=C2/CCC[C@]3(C)[C@@H]([C@H](C)/C=C/[C@@H](O)C4CC4)CC[C@@H]23)C[C@@H](O)C[C@@H]1O | Calcipotriene | -4.485 |
| CCC(C)(O)CCC=C(C)C (stereo not given) | 3,7-Dimethyloct-6-en-3-ol | -2.09 |
| CNC(=O)/C(=N/OC)c1ccccc1COc1cc(C)ccc1C | Dimoxystrobin | -4.879 |
| CC1(C)S[C@@H]2[C@H](NC(=O)[C@H](N=[N+]=[N-])c3ccccc3)C(=O)N2[C@H]1C(=O)O | Azidocillin | -2.788 |
| CC(C)(C)c1ccc(OC(=O)c2cc(C(C)(C)C)c(O)c(C(C)(C)C)c2)c(C2C(=O)Oc3ccc(C(C)(C)C)cc32)c1 (stereo not given) | n/a | -8.849 |
| CC(=O)OC(=O)C(O)c1ccccc1 (stereo not given) | Acetic hydroxy(phenyl)acetic anhydride | -1.23 |
| COC(F)(F)C(Cl)Cl | Methoxyflurane | -1.407 |
| CCCCNc1ccc(C(=O)OCCOCCOCCOCCOCCOCCOCCOCCOCCOC)cc1 | Benzonatate | -5.579 |
| CCCC(C#N)CCC | 2-Propylvaleronitrile | -2.717 |
| O=[N+]([O-])c1ccc(N=Nc2c(O)ccc3ccccc23)c(Cl)c1 | D&C Red No. 36 | -7.997 |
| C[C@@H]1O[C@@]2(CS1)CN1CCC2CC1 | Cevimeline | -1.918 |
| CC(C)=CCC/C(C)=C/CC[C@H](C)CC=O | (3S,6E)-3,7,11-Trimethyl-6,10-dodecadienal | -5.889 |
| C=C(OC(C)=O)c1ccccc1 | 1-Phenylethenyl acetate | -2.114 |
| Cc1csc2c(Cl)cccc12 | 7-Chloro-3-methyl-1-benzothiophene | -4.278 |
| COC(=O)C(CCn1cnc2c(Cl)nc(N)nc21)C(=O)OC | n/a | -3.034 |
| O=c1[nH]c(=O)c2ccccc2[nH]1 | 2,4(1H,3H)-Quinazolinedione | -3.099 |
| CN(CCO)c1nc(Nc2ccccc2)nc(Nc2ccc(/C=C/c3ccc(Nc4nc(Nc5ccccc5)nc(N(C)CCO)n4)cc3S(=O)(=O)[O-])c(S(=O)(=O)[O-])c2)n1.[Na+].[Na+] | Disodium 4,4'-bis-(2-sulfostyryl)biphenyl | -3.069 |
| CC(C)COC(=O)c1cc(N)c(Cl)c(N)c1 | Benzoic acid, 3,5-diamino-4-chloro-, 2-methylpropyl ester | -2.738 |
| Nc1cc(S(=O)(=O)O)cc2ccccc12 | 4-Aminonaphthalene-2-sulphonic acid | -2.34 |

A selection of 7 entries from above:

{"smiles": "O=C(O)c1cccc(Oc2ccccc2)c1", "name": "3-Phenoxybenzoic acid", "log S (log10 mol/L)": "-4.1"}
{"smiles": "CCCC(C#N)CCC", "name": "2-Propylvaleronitrile", "log S (log10 mol/L)": "-2.717"}
{"smiles": "CCCCCCCCCCCCOC(=O)C(CC)CCCC", "stereo": "stereo not given", "name": "C12-15 alkyl ethylhexanoate", "log S (log10 mol/L)": "-6.194"}
{"smiles": "CC(C)(C)c1ccc(OC(=O)c2cc(C(C)(C)C)c(O)c(C(C)(C)C)c2)c(C2C(=O)Oc3ccc(C(C)(C)C)cc32)c1", "stereo": "stereo not given", "log S (log10 mol/L)": "-8.849"}
{"smiles": "CCC(=O)C(C)=O", "name": "2,3-Pentanedione", "log S (log10 mol/L)": "-0.176"}
{"smiles": "C=C(OC(C)=O)c1ccccc1", "name": "1-Phenylethenyl acetate", "log S (log10 mol/L)": "-2.114"}
{"smiles": "Cc1csc2c(Cl)cccc12", "name": "7-Chloro-3-methyl-1-benzothiophene", "log S (log10 mol/L)": "-4.278"}